Data taken from PubChem BioAssay AID2805 (Sanford-Burnham Center for Chemical Genomics, 2010).
This is a selection; strong and weak results do not stand in their true shares. Activity calls are given as the source filed them.

The compounds below were run on intestinal alkaline phosphatase [Mus musculus] (assay: mouse intestinal phosphatase enzyme activation – biochemical, luminescence, uHTS, primary screen (AID 2805)). Settings: muIAP, CDP-Star luminescence, 30 min; at 10 µM; stronger effect = higher value; 1 = vehicle-only enzyme signal, 0 = enzyme-free wells.
How it was run: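 Assay system: mouse IAP enzyme; Reagent: CDP-Star chemiluminescent phosphatase substrate; Compound: DMSO-dissolved test compounds; Incubation: 30 min, room temperature; Technique: luminescence from enzymatic CDP-Star hydrolysis; Controls: DMSO-only wells and no-enzyme negative control.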

**Q.** For `CCOc1ncccc1C(=O)NCC1(N2CCOCC2)CCCCC1`, which activation factor is on record?
**A.** Its activation factor is inactive: 1.03.

**Q.** With `CN1CCC(Nc2ccc(F)c(Cl)c2)CC1` as the compound, how does the activation factor read?
**A.** Its activation factor is inactive: 1.05.

**Q.** With `CCCOc1ccc(C(=O)NCC2(N(C)C)CCCCC2)cc1` as the compound, how does the activation factor read?
**A.** Its activation factor is inactive: 1.07.

**Q.** With `CC(C)(C)OC(=O)N1CCC(Nc2ccccc2)CC1` as the compound, how does the activation factor read?
**A.** Its activation factor is inactive: 1.01.

**Q.** How did the activation factor turn out when `O=C(O)C1(Nc2ccccc2)CCN(Cc2ccccc2)CC1` was run?
**A.** Its activation factor is inactive: 0.91.

**Q.** Which activation factor does the source give for `CCC(CO)(C(=O)OC1CN2CCC1CC2)c1ccccc1` (configuration not stated) here?
**A.** Its activation factor is inactive: 1.04.

**Q.** Which activation factor does the source give for `COc1cccc(C(=O)N(c2cc(C)cc(C)c2)C2CCN(C(=O)OC(C)(C)C)CC2)c1` here?
**A.** The activation factor was inactive: 0.987.

**Q.** With `COc1cc(OC)cc(C(=O)NCC2(N3CCOCC3)CCCCC2)c1` as the compound, how does the activation factor read?
**A.** The activation factor was inactive: 0.941.

**Q.** `CCCOc1ccc(C)cc1CN(CCCl)CCCl` was tested. Which activation factor did it give?
**A.** The activation factor was inactive: 0.97.

**Q.** How did the activation factor turn out when `CN1CCC(Nc2ccc(Cl)cc2)CC1` was run?
**A.** The activation factor was inactive: 1.05.

**Q.** For `COc1cc(OC)cc(C(=O)NCC2(N3CCCCC3)CCCCC2)c1`, which activation factor is on record?
**A.** Its activation factor is inactive: 1.08.

**Q.** `Cc1ccc(C(=O)NCC2(N3CCCCC3)CCCCC2)o1` was tested. Which activation factor did it give?
**A.** The activation factor was inactive: 0.917.

**Q.** For `Fc1ccccc1NC1CCN(Cc2ccccc2)CC1`, which activation factor is on record?
**A.** Its activation factor is inactive: 1.03.

**Q.** `CCN1CCC(Nc2cccc(F)c2)CC1` was tested. Which activation factor did it give?
**A.** The activation factor was inactive: 0.875.

**Q.** For `O=C(NCC1(N2CCCCC2)CCCCC1)c1ccco1`, which activation factor is on record?
**A.** The activation factor was inactive: 1.04.

**Q.** Which activation factor does the source give for `CN(C)c1ccc(C(=O)NCC2(N3CCCCC3)CCCCC2)cc1` here?
**A.** Its activation factor is inactive: 1.

**Q.** `CC(C)(C)OC(=O)N1CCC(N(C(=O)c2ccccc2)c2ccc(Cl)cc2)CC1` was tested. Which activation factor did it give?
**A.** Its activation factor is inactive: 1.02.

**Q.** How did the activation factor turn out when `N#Cc1ccc(C(=O)NCC2(N3CCCCC3)CCCCC2)cc1` was run?
**A.** The activation factor was inactive: 0.992.

**Q.** For `c1ccc(CN2CCC(Nc3ccccc3)CC2)cc1`, which activation factor is on record?
**A.** The activation factor was inactive: 0.942.

**Q.** `CCCN1CCC(Nc2cc(OC)cc(OC)c2)CC1` was tested. Which activation factor did it give?
**A.** Its activation factor is inactive: 0.966.

**Q.** For `CN(C)C1(CNC(=O)c2cccc(C#N)c2)CCCCC1`, which activation factor is on record?
**A.** The activation factor was inactive: 1.03.

**Q.** For `O=C(NCC1(N2CCOCC2)CCCCC1)c1cc(Br)ccc1Cl`, which activation factor is on record?
**A.** The activation factor was inactive: 1.1.

**Q.** How did the activation factor turn out when `COc1cc(C(=O)NCC2(N3CCOCC3)CCCCC2)cc(OC)c1C` was run?
**A.** Its activation factor is inactive: 1.11.

**Q.** Which activation factor does the source give for `COc1ccc(C(=O)NCC2(N3CCOCC3)CCCCC2)cc1OC` here?
**A.** Its activation factor is inactive: 1.1.

**Q.** Which activation factor does the source give for `N/C(=N\O)c1c(N)no[n+]1[O-]` here?
**A.** Its activation factor is inactive: 1.05.

**Q.** For `CCOC(=O)N1CCC(Nc2ccc(C)cc2)CC1`, which activation factor is on record?
**A.** Its activation factor is inactive: 0.983.

**Q.** Which activation factor does the source give for `CCc1cc(C(=O)NCC2(N3CCCCC3)CCCCC2)sc1C` here?
**A.** Its activation factor is inactive: 0.997.

**Q.** With `O=C(OC1CN2CCC1CC2)C1c2ccccc2C=Cc2ccccc21` (configuration not stated) as the compound, how does the activation factor read?
**A.** The activation factor was inactive: 0.983.

**Q.** How did the activation factor turn out when `COc1ccc(CN(CCCl)CCCl)cc1Cl` was run?
**A.** The activation factor was inactive: 0.961.

**Q.** How did the activation factor turn out when `CN(C)c1cccc(C(=O)NCC2(N3CCCCC3)CCCCC2)c1` was run?
**A.** The activation factor was inactive: 1.1.

**Q.** `CC(C)c1ccc(NC2CCN(C(=O)OC(C)(C)C)CC2)cc1` was tested. Which activation factor did it give?
**A.** The activation factor was inactive: 0.996.

**Q.** Which activation factor does the source give for `COc1cc(OC)c(C(=O)NCC2(N(C)C)CCCCC2)cc1OC` here?
**A.** The activation factor was inactive: 1.01.

**Q.** Which activation factor does the source give for `O=C(NCC1(N2CCOCC2)CCCCC1)c1cc(F)c(F)cc1Cl` here?
**A.** Its activation factor is inactive: 0.993.

**Q.** With `CN1CCC(Nc2cccc(F)c2)CC1` as the compound, how does the activation factor read?
**A.** The activation factor was inactive: 1.

**Q.** With `O=C(NCC1(N2CCCCC2)CCCCC1)c1cncc(Br)c1` as the compound, how does the activation factor read?
**A.** Its activation factor is inactive: 0.936.

**Q.** How did the activation factor turn out when `O=C(NCC1(N2CCCCC2)CCCCC1)c1ccc(OC(F)F)cc1` was run?
**A.** The activation factor was inactive: 0.975.

**Q.** Which activation factor does the source give for `CSc1ccc(C(=O)NCC2(N3CCOCC3)CCCCC2)cc1` here?
**A.** The activation factor was inactive: 1.07.

**Q.** Which activation factor does the source give for `O=C(NCC1(N2CCCCC2)CCCCC1)c1cccc([N+](=O)[O-])c1` here?
**A.** The activation factor was inactive: 0.978.

**Q.** How did the activation factor turn out when `CCN1CCC(Nc2ccc(Cl)cc2)CC1` was run?
**A.** The activation factor was inactive: 0.989.

**Q.** How did the activation factor turn out when `N#CC1(Nc2ccccc2)CCN(CCc2ccccc2)CC1` was run?
**A.** Its activation factor is inactive: 0.963.

**Q.** `O=C(NCC1(N2CCCCC2)CCCCC1)c1cccc(C(F)(F)F)c1` was tested. Which activation factor did it give?
**A.** Its activation factor is inactive: 1.03.

**Q.** How did the activation factor turn out when `CC(C)c1ccc(C(=O)NCC2(N3CCOCC3)CCCCC2)cc1` was run?
**A.** Its activation factor is inactive: 1.02.

**Q.** With `COc1ccc(NC2CCN(C(=O)OC(C)(C)C)CC2)cc1` as the compound, how does the activation factor read?
**A.** The activation factor was inactive: 0.954.

**Q.** Which activation factor does the source give for `CN1CCN(CCOC(=O)C(O)(c2ccccc2)c2ccccc2)CC1` here?
**A.** Its activation factor is inactive: 1.08.

**Q.** How did the activation factor turn out when `O=C(NCC1(N2CCOCC2)CCCCC1)c1cc(=O)[nH]c2ccccc12` was run?
**A.** Its activation factor is inactive: 1.08.

**Q.** Which activation factor does the source give for `COc1cc(C(=O)NCC2(N3CCCCC3)CCCCC2)ccc1OC(F)F` here?
**A.** Its activation factor is inactive: 1.

**Q.** For `CCOc1ccc(C)cc1CN(CCCl)CCCl`, which activation factor is on record?
**A.** The activation factor was inactive: 1.1.

**Q.** How did the activation factor turn out when `CCCCOc1ccc(C(=O)NCC2(N3CCOCC3)CCCCC2)cc1` was run?
**A.** The activation factor was inactive: 1.04.

**Q.** Which activation factor does the source give for `O=C(NCC1(N2CCCCC2)CCCCC1)c1ccc(F)cc1` here?
**A.** Its activation factor is inactive: 1.01.

**Q.** `CCOC(=O)N1CCC(Nc2ccc(F)cc2)CC1` was tested. Which activation factor did it give?
**A.** The activation factor was inactive: 1.04.

**Q.** `COc1ccc(NC2CCN(CCc3ccccc3)CC2)c(OC)c1` was tested. Which activation factor did it give?
**A.** Its activation factor is inactive: 1.05.

**Q.** `CCOC(=O)N1CCC(Nc2cccc(C)c2)CC1` was tested. Which activation factor did it give?
**A.** The activation factor was inactive: 1.1.

**Q.** Which activation factor does the source give for `Cc1ccc(OCC(C)C)c(CN(CCCl)CCCl)c1` here?
**A.** Its activation factor is inactive: 0.992.

**Q.** For `O=C(NCC1(N2CCCCC2)CCCCC1)c1ccc(=O)[nH]c1`, which activation factor is on record?
**A.** Its activation factor is inactive: 0.954.

**Q.** Which activation factor does the source give for `O=C(NCC1(N2CCCCC2)CCCCC1)c1cccs1` here?
**A.** The activation factor was inactive: 0.891.

**Q.** `COc1ccc(C(=O)NCC2(N3CCCCC3)CCCCC2)cc1` was tested. Which activation factor did it give?
**A.** The activation factor was inactive: 0.978.

**Q.** `CC(C)(C)OC(=O)N1CCC(N(C(=O)c2ccccc2)c2ccc(F)cc2)CC1` was tested. Which activation factor did it give?
**A.** The activation factor was inactive: 1.03.

**Q.** `COc1ccc(C(=O)NCC2(N3CCCCC3)CCCCC2)c(OC)c1OC` was tested. Which activation factor did it give?
**A.** Its activation factor is inactive: 1.09.

**Q.** With `CSc1ccccc1C(=O)NCC1(N2CCCCC2)CCCCC1` as the compound, how does the activation factor read?
**A.** Its activation factor is inactive: 1.01.

**Q.** For `O=C(NCC1(N2CCOCC2)CCCCC1)c1cc2ccccc2o1`, which activation factor is on record?
**A.** Its activation factor is inactive: 0.923.

**Q.** Which activation factor does the source give for `O=C(NCC1(N2CCCCC2)CCCCC1)c1ccc(Cl)nc1` here?
**A.** Its activation factor is inactive: 1.12.

**Q.** `Cc1cc(C)cc(N(C(=O)c2ccccc2)C2CCN(C(=O)OC(C)(C)C)CC2)c1` was tested. Which activation factor did it give?
**A.** The activation factor was inactive: 1.05.

**Q.** `CCOC(=O)N1CCC(Nc2ccc(OC)cc2)CC1` was tested. Which activation factor did it give?
**A.** The activation factor was inactive: 1.12.

**Q.** How did the activation factor turn out when `N#CC1(Nc2ccccc2)CCN(Cc2ccccc2)CC1` was run?
**A.** The activation factor was inactive: 1.02.

**Q.** For `O=C(NCC1(N2CCCCC2)CCCCC1)c1ccc(Cl)s1`, which activation factor is on record?
**A.** The activation factor was inactive: 1.01.

**Q.** `O=C(OC1CN2CCC1CC2)C1c2ccccc2Oc2ccccc21` (configuration not stated) was tested. Which activation factor did it give?
**A.** The activation factor was inactive: 0.923.

**Q.** How did the activation factor turn out when `COc1ccc(Cl)cc1C(=O)NCC1(N2CCOCC2)CCCCC1` was run?
**A.** The activation factor was inactive: 0.954.
